Molecular target: T1, Nluc-A1R (Homo sapiens, UniProt P30542)
T1 construct: expressed in transfected cells; host or cells: HEK293
Test: NanoBRET binding, displacement of CA200645
Details: Nluc-A1R HEK293 cells, CA200645 tracer, mean ± SEM; # values are estimates (incomplete displacement)

Amino acid sequences for entries named in this document (tags omitted). A change or cut given only in a name is not applied to a line headed by its entry.
UniProt P30542, whole entry: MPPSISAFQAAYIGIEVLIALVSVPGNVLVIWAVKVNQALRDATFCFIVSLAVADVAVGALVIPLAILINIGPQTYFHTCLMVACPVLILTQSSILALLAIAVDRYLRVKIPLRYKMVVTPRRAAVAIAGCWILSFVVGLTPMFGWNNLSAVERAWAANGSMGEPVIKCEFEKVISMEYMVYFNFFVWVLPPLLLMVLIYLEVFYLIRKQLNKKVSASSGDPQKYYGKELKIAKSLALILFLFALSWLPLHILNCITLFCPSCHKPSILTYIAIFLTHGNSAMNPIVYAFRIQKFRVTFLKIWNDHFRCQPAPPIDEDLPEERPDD

A pKi of 7.29 ± 0.27 was found for `O=C(Cc1ccccc1)Nc1nc2ccc(Cl)cc2c2nc(-c3ccco3)nn12` [MRS1220] in this work.

— article PMC9190043, “Discovery of a High Affinity Adenosine A1/A3 Receptor Antagonist with a Novel 7-Amino-pyrazolo[3,4-d]pyridazine Scaffold” (ACS Medicinal Chemistry Letters, 2022)
